# Laboratory results published in patent publication US7550469B2, “Heterocyclic amide derivatives and their use as dopamine D3 receptor ligands” (Aventis Pharmaceuticals Inc., priority 2001, dated 2009).
# Sequences of proteins named here, by UniProt entry; tags and fusion partners are left off.
# UniProt P35462, whole entry: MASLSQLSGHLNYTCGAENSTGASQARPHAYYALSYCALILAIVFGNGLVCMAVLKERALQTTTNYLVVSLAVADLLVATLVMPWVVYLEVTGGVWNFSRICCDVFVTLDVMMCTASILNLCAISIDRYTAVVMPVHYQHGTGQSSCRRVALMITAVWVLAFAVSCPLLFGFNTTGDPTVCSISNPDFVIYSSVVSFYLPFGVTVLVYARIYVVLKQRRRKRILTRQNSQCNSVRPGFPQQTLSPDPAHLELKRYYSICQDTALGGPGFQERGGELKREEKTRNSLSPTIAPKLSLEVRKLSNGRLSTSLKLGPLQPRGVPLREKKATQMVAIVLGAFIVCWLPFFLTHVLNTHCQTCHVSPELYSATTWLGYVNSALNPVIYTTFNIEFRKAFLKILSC
# Target: cloned human dopamine D3 receptors (Homo sapiens, UniProt P35462)
# Experiment: [N-Methyl-3H]Spiroperidol binding to cloned human dopamine D3 receptors (Protocol 1)
# Conditions: read-out: D3K1
# Source text: [N-Methyl-^3H]Spiroperidol Binding to Cloned Human Dopamine D3 Receptors
# This assay measures the in vitro activity of compounds on cloned human dopamine (D3) receptors and predicts the direct dopamine-blocking properties of putative neuropsychiatric agents at human dopamine D3 receptors.
# The D3 gene was isolated from a human striatal cDNA library (Stratagene). The gene was sequenced and sub-cloned into the expression vector RC/RSV (Invitrogen). CHO (Chinese Hamster Ovary) cells were stably transfected with 10 μg of the D3/RSV plasmid using the DOTAP method from Boehringer Mannheim and 72 clones that were G418 resistant were isolated. Using mRNA and binding displacement data a single high expressing clone was identified. This clone was then grown in large batches for the purpose of developing a 96 well format assay.
# • 1. One plate (10 cm) with approximately 2-3 million D3 cells per plate is incubated with 1 ml of Trypsin-EDTA at room temperature for ˜2 min or until cells have lifted off plates. Four ml of Ham's F12+10% Fetal Bovine Serum+1% Penicillin/Streptomycin+G418 (400 μg/ml) medium are added to resuspend cells and 1 ml of this is added to each large plate (15 cm) containing 19 ml of the-same medium as mentioned above. • 2. The 5 large plates are incubated at 37° C.+5% CO2 for ˜3 days or until the cells are confluent. • 3. After these plates are confluent, they are split into 10 large plates. Medium is aspirated off, 2 ml of Trypsin-EDTA are added to each plate and plates are incubated at RT for 2 min or until cells have lifted off the plate. Eight ml of the F12 medium (same medium as #1 above) are added to each plate (10 ml total) to resuspend the cells and 5 ml are transferred to the 2 new plates containing 15 ml of the F12 media. • 4. The 10 large plates are incubated at 37° C.+5% CO2 for ˜2 days or until the cells are confluent. • 5. The 10 large plates are split into 60 large plates (using Trypsin-EDTA as #3 except 4 ml of F12 medium are added to resuspend cells and 1 ml is aliquoted to 6 new plates containing 19 ml of F12 medium each). • 6. Plates are incubated at […]+5% CO2 for ˜3 days or until cell are confluent. • 7. The 60 large plates are then split into 60 roller bottles (100-150 million cells/bottle). Medium is aspirated off, 2 ml of Trypsin-EDTA are added to each plate and incubated at RT for ˜2 minutes or until cells have lifted off plates. Eight ml of F12 medium are added to each plate to resuspend cells and the entire 10 ml are added to 1 roller bottle containing 90 ml of the F12 medium. • 8. The 60 roller bottles are immediately placed on their sides and transferred to the roller bottle incubator. They are incubated at 37° C.+5% CO2 for ˜3-5 days. Cells are spun at 30-40% motor speed in the Forma incubator. • 9. Medium is poured off and cells are washed 2× in PBS. • 10. Cells are then scraped off in 20 ml of PBS and the bottles are rinsed again with 5 ml of PBS to remove any remaining cells. Cells are stored on ice before membrane preparation. • 11. The yield for 60 D3 roller bottles has varied from ˜260-500 mg. • Note: All tissue culture reagents are from Gibco-BRL. C. Membrane Preparation
# The cells are harvested into 250 ml centrifuge tubes with 100 volumes of cold phosphate buffered saline (PBS) and spun down (1200×G for 10 min at 4° C.). The medium is removed and 100 ml PBS are added to each centrifuge tube, cells are resuspend and spun down again. The PBS is removed and the final pellet is homogenized in an appropriate volume of 10% DMSO with a polytron on ice at a medium setting.
# 1. 0.5M Tris Buffer, pH 7.7 • a) 44.4 g Tris HCl 26.5 g Tris Base q.s. to 1 Liter (0.5 M Tris buffer, pH 7.7 at 37° C.) • b) make a 1:10 dilution in distilled H2O (0.05 M. Tris buffer, pH 7.7) 2. Tris Buffer Containing Physiological Salts • a) Stock buffer • NaCl 7.014 g • KCl 0.372 g • CaCl2 0.222 g • MgCl2 0.204 g • q.s. To 100 ml with 0.5 M. Tris Buffer • b) Dilute 1:10 in distilled H2O […]
row,Structure (SMILES),Ki [nM]
1,CC1(C)[C@@H](CNC(=O)CCc2ccc([N+](=O)[O-])cc2)[C@@H]1CN1CCN(c2csc3cc(C(F)(F)F)ccc23)CC1,51
2,CC1=C(C(=O)NCCCCCCN2CCN(c3csc4cc(C(F)(F)F)ccc34)CC2)Cc2ccccc21,4
3,O=C(NC[C@@H]1CC[C@H]1CN1CCN(c2csc3cc(C(F)(F)F)ccc23)CC1)c1cc2ccccc2[nH]1 (relative stereo),49
4,CC1=C(C(=O)N[C@@H](CO)CCCN2CCN(c3csc4cc(C(F)(F)F)ccc34)CC2)Cc2ccccc21,293
5,CC1(C)[C@@H](CNC(=O)C2CCCCC2)[C@@H]1CN1CCN(c2csc3cc(C(F)(F)F)ccc23)CC1,163
6,COc1ccc2[nH]c(C(=O)NC[C@@H]3CC[C@H]3CN3CCN(c4csc5cc(C(F)(F)F)ccc45)CC3)cc2c1 (relative stereo),71
7,O=C(NC[C@@H]1CC[C@H]1CN1CCN(c2csc3cc(C(F)(F)F)ccc23)CC1)c1cc2ccccc2s1 (relative stereo),43
8,CC1[C@@H](CNC(=O)c2ccc3ccccc3c2)[C@@H]1CN1CCN(c2csc3cc(C(F)(F)F)ccc23)CC1 (some centres unmarked),40.2

# Same assay, conditions: read-out: D3K1; Table 2
row,Structure (SMILES),Ki [nM]
1,O=C(NCCC(CO)CN1CCN(c2csc3cc(C(F)(F)F)ccc23)CC1)c1cc2ccccc2[nH]1 (centres unmarked),76.6
2,O=C(NCCC[C@@H](CO)N1CCN(c2csc3cc(C(F)(F)F)ccc23)CC1)c1ccc2[nH]ccc2c1,318
3,Cc1c(C(=O)NCCC[C@H](CO)N2CCN(c3csc4cc(C(F)(F)F)ccc34)CC2)cnn1-c1ccccc1,837
4,COc1ccc(OC)c(C(=O)NCCC(CO)CN2CCN(c3csc4cc(C(F)(F)F)ccc34)CC2)c1 (centres unmarked),849
5,O=C(NCCC[C@@H](CO)N1CCN(c2csc3cc(C(F)(F)F)ccc23)CC1)c1cc2ccccc2s1,187
6,CCCCOc1ccc(C(=O)NCC(CO)CCN2CCN(c3csc4cc(C(F)(F)F)ccc34)CC2)cc1 (centres unmarked),277
7,O=C(NCCC(CO)CN1CCN(c2csc3cc(C(F)(F)F)ccc23)CC1)c1ccc(Cl)cc1 (centres unmarked),442
8,CCOc1ccc(C(=O)NCCCCN2CCN(c3c(F)sc4cc(F)ccc34)CC2)cc1,1.82
9,O=C(NCCC[C@H](CO)N1CCN(c2csc3cc(C(F)(F)F)ccc23)CC1)c1cnnc2ccccc12,406
10,O=C(NCC(CO)CCN1CCN(c2csc3cc(C(F)(F)F)ccc23)CC1)c1ccc(Cl)cc1 (centres unmarked),191
11,O=C(NCCC[C@@H](CO)N1CCN(c2csc3cc(C(F)(F)F)ccc23)CC1)c1ccc(-c2ccccc2)cc1,559
12,O=C(NCC(CO)CCN1CCN(c2csc3cc(C(F)(F)F)ccc23)CC1)c1ccccc1O (centres unmarked),188
13,O=C(NCCC(CO)CN1CCN(c2csc3cc(C(F)(F)F)ccc23)CC1)c1ccc(-c2ccccc2)cc1 (centres unmarked),464
14,O=C(NCCC[C@@H](CO)N1CCN(c2csc3cc(C(F)(F)F)ccc23)CC1)c1ccco1,492
15,O=C(NCCC[C@H](CO)N1CCN(c2csc3cc(C(F)(F)F)ccc23)CC1)c1cccc2ccccc12,464
16,O=C(NCC(CO)CCN1CCN(c2csc3cc(C(F)(F)F)ccc23)CC1)c1ccccc1F (centres unmarked),325
17,Cc1c(C(=O)NCC(CO)CCN2CCN(c3csc4cc(C(F)(F)F)ccc34)CC2)cnn1-c1ccccc1 (centres unmarked),295
18,CC1=C(C(=O)N[C@@H](CO)CCCN2CCN(c3csc4cc(C(F)(F)F)ccc34)CC2)Cc2ccccc21,293
19,"O=C(NCC(CO)CCN1CCN(c2csc3cc(C(F)(F)F)ccc23)CC1)c1cccc(C(=O)c2ccccc2)c1 (single isomer, unassigned) [818912ES]",135
20,O=C(NCCC[C@@H](CO)N1CCN(c2csc3cc(C(F)(F)F)ccc23)CC1)c1ccc(Cl)cc1,238
21,CC(=O)Nc1ccc(C(=O)NCC(CO)CCN2CCN(c3csc4cc(C(F)(F)F)ccc34)CC2)cc1 (centres unmarked),128
22,O=C(NCCC(CO)CN1CCN(c2csc3cc(C(F)(F)F)ccc23)CC1)c1cccc(C(=O)c2ccccc2)c1 (centres unmarked),314
23,O=C(NCC(CO)CCN1CCN(c2csc3cc(C(F)(F)F)ccc23)CC1)c1cccc(F)c1 (centres unmarked),190
24,O=C(NCCCCN1CCN(c2c(F)sc3cc(F)ccc23)CC1)c1ccc(C(F)(F)F)cc1,3.8

row,Structure (SMILES),Ki [nM]
1,COc1ccc(C(=O)NCCCCN2CCN(c3c(F)sc4cc(F)ccc34)CC2)cc1,0.826
2,CC(=O)Nc1ccc(C(=O)NCCC[C@@H](CO)N2CCN(c3csc4cc(C(F)(F)F)ccc34)CC2)cc1,173
3,COc1ccc(C(=O)NCCC[C@@H](CO)N2CCN(c3csc4cc(C(F)(F)F)ccc34)CC2)cc1OC,479
4,O=C(NCCC[C@H](CO)N1CCN(c2csc3cc(C(F)(F)F)ccc23)CC1)c1cc2ccccc2s1,355
5,O=C(NCCC[C@H](CO)N1CCN(c2csc3cc(C(F)(F)F)ccc23)CC1)c1ccc2[nH]ccc2c1,547
6,O=C(NCCCCN1CCN(c2c(F)sc3cc(F)ccc23)CC1)c1ccc(Br)cc1,2.52
7,O=C(NCCC[C@@H](CO)N1CCN(c2csc3cc(C(F)(F)F)ccc23)CC1)c1ccc(Br)cc1,264
8,COc1ccc(C(=O)NCCC[C@@H](CO)N2CCN(c3csc4cc(C(F)(F)F)ccc34)CC2)cc1,160
9,COc1ccc2[nH]c(C(=O)NC/C=C\CN3CCN(c4csc5cc(C(F)(F)F)ccc45)CC3)cc2c1,10
10,O=C(NCCC[C@@H](CO)N1CCN(c2csc3cc(C(F)(F)F)ccc23)CC1)c1cc2ccccc2o1,230
11,O=C(NCCCCN1CCN(c2c(F)sc3cc(F)ccc23)CC1)c1c(F)cccc1F,3.23
12,O=C(NCCC[C@@H](CO)N1CCN(c2csc3cc(C(F)(F)F)ccc23)CC1)c1cc2ccccc2[nH]1,175
13,O=C(NCC(CO)CCN1CCN(c2csc3cc(C(F)(F)F)ccc23)CC1)c1ccccc1Cl (centres unmarked),339
14,CC(=O)Nc1ccc(C(=O)NCCC[C@H](CO)N2CCN(c3csc4cc(C(F)(F)F)ccc34)CC2)cc1,474
15,COc1ccc(C(=O)NCCC(CO)CN2CCN(c3csc4cc(C(F)(F)F)ccc34)CC2)cc1 (centres unmarked),267
16,O=C(NCCC[C@H](CO)N1CCN(c2csc3cc(C(F)(F)F)ccc23)CC1)c1c(F)cc(F)cc1F,191
17,COc1ccc(C(=O)NCCC[C@H](CO)N2CCN(c3csc4cc(C(F)(F)F)ccc34)CC2)cc1,109
18,O=C(NCCC[C@@H](CO)N1CCN(c2csc3cc(C(F)(F)F)ccc23)CC1)c1cccc2ccccc12,222
19,O=C(NC/C=C\CN1CCN(c2csc3cc(C(F)(F)F)ccc23)CC1)c1cc2ccccc2[nH]1,18.3
20,O=C(NCC(CO)CCN1CCN(c2csc3cc(C(F)(F)F)ccc23)CC1)c1ccc(-c2ccccc2)cc1 (centres unmarked),181
21,O=C(NCC(CO)CCN1CCN(c2csc3cc(C(F)(F)F)ccc23)CC1)c1ccccc1 (centres unmarked),131
22,CC(=O)Nc1ccc(C(=O)NCCC(CO)CN2CCN(c3csc4cc(C(F)(F)F)ccc34)CC2)cc1 (centres unmarked),547
23,O=C(NCCCCN1CCN(c2c(F)sc3cc(F)ccc23)CC1)c1ccc(Cl)cc1,0.799

# Same assay, conditions: read-out: D3K1; Table 2; tested form: HCl
row,Structure (SMILES),Ki [nM]
1,COc1ccc(C(=O)NCCCCN2CCN(c3csc4cc(C(F)(F)F)ccc34)CC2)cc1,2.9

# Same assay, conditions: read-out: D3K1; Table 2; tested form: hydrochloride
row,Structure (SMILES),Ki [nM]
1,O=C(NCCCCN1CCN(c2c(F)sc3cc(F)ccc23)CC1)c1cc2ccccc2s1,3.01
2,CCOc1ccc(C(=O)NCCCCN2CCN(c3csc4cc(C(F)(F)F)ccc34)CC2)cc1 [compound 815541],3.45

# Same assay, conditions: read-out: D3Ki; the 13th table, unit inferred
row,Structure (SMILES),Ki [nM]
1,CC1=C(C(=O)NCCCCCN2CCCN(c3csc4cc(F)ccc34)CC2)Cc2ccccc21,11.7

# Same assay, conditions: read-out: D3 Ki; the 14th table
row,Structure (SMILES),Ki [nM]
1,CC1=C(C(=O)NCCCCCCN2CCN(c3csc4cc(C(F)(F)F)ccc34)CC2)Cc2ccccc21,4
2,CC1=C(C(=O)N[C@@H](CO)CCCN2CCN(c3csc4cc(C(F)(F)F)ccc34)CC2)Cc2ccccc21,293

# Same assay, conditions: read-out: D3 Ki; the 23rd table
row,Structure (SMILES),Ki [nM]
1,C=CCN(CC=C)CC1CC1CN1CCCN(c2csc3cc(F)ccc23)CC1 (racemic),22.5
